This note sets out measurements from patent US5466809A, “Process for the preparation of immunostimulating swainsonine analogs” (Toronto Research Chemicals, Inc., priority 1994, dated 1995).

The experiment addresses T1, Jack Bean alpha-mannosidase (Canavalia ensiformis, UniProt C0HJB3).
T1 sequence (C0HJB3 1-981): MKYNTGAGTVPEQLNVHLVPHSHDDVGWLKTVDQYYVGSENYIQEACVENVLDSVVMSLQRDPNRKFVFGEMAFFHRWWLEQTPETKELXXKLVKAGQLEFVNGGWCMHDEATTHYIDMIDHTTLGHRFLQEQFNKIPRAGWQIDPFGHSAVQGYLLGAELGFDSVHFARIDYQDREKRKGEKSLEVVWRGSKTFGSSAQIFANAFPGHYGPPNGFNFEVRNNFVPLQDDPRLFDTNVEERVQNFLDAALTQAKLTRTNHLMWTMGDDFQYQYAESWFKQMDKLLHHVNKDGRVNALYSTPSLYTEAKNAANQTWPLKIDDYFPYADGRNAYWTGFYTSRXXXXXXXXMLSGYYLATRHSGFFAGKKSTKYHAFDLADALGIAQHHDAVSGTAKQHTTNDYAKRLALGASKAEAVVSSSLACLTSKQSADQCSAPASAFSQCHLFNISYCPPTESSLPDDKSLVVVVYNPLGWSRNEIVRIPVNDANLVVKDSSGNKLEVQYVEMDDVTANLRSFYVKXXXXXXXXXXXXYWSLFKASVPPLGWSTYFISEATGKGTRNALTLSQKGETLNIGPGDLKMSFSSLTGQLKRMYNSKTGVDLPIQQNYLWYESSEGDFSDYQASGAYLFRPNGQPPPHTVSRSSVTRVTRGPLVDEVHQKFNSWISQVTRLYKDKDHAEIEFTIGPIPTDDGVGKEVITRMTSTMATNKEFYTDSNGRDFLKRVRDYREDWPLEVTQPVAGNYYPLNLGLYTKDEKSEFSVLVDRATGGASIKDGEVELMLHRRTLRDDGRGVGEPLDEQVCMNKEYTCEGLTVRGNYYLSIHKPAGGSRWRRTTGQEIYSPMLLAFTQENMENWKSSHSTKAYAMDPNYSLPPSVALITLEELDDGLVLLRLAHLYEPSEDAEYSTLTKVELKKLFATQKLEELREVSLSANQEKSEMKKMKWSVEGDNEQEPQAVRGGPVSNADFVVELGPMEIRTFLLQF
The experiment is described as follows: Jack Bean alpha-mannosidase assay. In kind it is biochemical. To be noted: pH 6.0, 37° C., 30 minutes, p-nitrophenyl-alpha-D-mannopyranoside substrate; read-out: D50 Values (Inhibition), J.B. mannosidase (converted). Here is the method: Jack Bean alpha-Mannosidase Assay. Samples of swainsonine and its analogues (100, 30, 10, 3, 1, 0.3 or 0.1 ng) were dissolved in a total volume of 75 ul and transferred into individual wells in a 96 well plate. A volume (37.5 ul) of 0.05M sodium acetate (pH 6.0) was added to each well, followed by 37.5 ul of 0.01M p-nitrophenyl-alpha-D-mannopyanoside, and then 10 ul of a 1:400 dilution of Jack Bean alpha-mannosidase. After thoroughly shaking to mix, the mixture was incubated at 37° C. for 30 minutes. The reaction was stopped by the addition of 150 ul of 0.5M sodium carbonate (pH 10.0). The absorbance at 405 nm of the solution in the wells was determined in an ELISA plate reader.

Regarding `O[C@H]1[C@H]2[C@H](O)CCCN2C[C@H]1O` [swainsonine, 1S-8a-β-octahydroindolizine-1-alpha-2-alpha-8-β-triol], the IC50 is 404 nM.
